Assay [1] deals with ChromePure human IgG Fc (human). In words: SPR; Biacore 2000; human IgG Fc and human, rabbit, mouse, guinea pig whole IgG amine coupled to CM5 chips (854, 1348, 1094, 857, 1143 RU); gE monomers and gE/gI heterodimers at 750 μg/mL (Bac gE-1 t411 490 μg/mL) flowed at 30 μL/min in 0.01 M HEPES pH 7.4, 0.15 M NaCl, 0.005% P20; one concentration, RU at the end of association and of dissociation.

For assay [2] the target is unchanged. The description is as above. This is another data set of the same source.

Several values for one entry are separate records, joined by “and”; a condition that tells them apart may be missing. Equal entries are not always repeated. Where two headings read alike, the source gives them in different places.

In assay [1], gE-2 t417/gI-2 t262 (complex) yielded an RU post association of 41 RU and an RU post dissociation of 0.8 RU. For the same substance, the RU post association in assay [2] was 43 RU and 98 RU.

The values above are taken from article PMC8879737.
